Values of other authors as cited in patent publication US10487348B2, “3-alpha-hydroxysteroid dehydrogenase mutants and process for the preparation of ursodeoxycholic acid” (Pharmazell GmbH, priority 2014, dated 2019).

Chains of the proteins cited; added tags and fusions are not shown. Lines headed by an entry give the natural chain unless they say otherwise; changes in a name come on top.
UniProt A4ECA9: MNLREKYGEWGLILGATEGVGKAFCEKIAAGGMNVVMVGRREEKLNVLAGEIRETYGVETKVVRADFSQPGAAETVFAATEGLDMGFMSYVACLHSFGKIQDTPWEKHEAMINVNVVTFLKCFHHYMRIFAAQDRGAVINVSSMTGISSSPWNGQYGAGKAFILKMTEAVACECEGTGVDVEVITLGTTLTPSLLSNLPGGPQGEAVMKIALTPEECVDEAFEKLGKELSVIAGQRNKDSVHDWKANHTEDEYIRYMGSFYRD

Biological target: 7β-HSDH from Collinsella aerofaciens DSM 3979 (Collinsella aerofaciens, UniProt A4ECA9)
Settings: 7β-HSDH wild type; value for the substrate/cofactor named; cited from earlier work

C[C@H](CCC(=O)O)[C@H]1CC[C@H]2[C@@H]3C(=O)C[C@@H]4CC(=O)CC[C@]4(C)[C@H]3CC(=O)[C@]12C [DHCA, dehydrocholic acid]
Km: 9.23 µM
